In one assay the test system is calf thymus DNA. Briefly: UV-vis absorption titration with calf thymus DNA. It is filed as binding. The note with it: calf thymus DNA (0-5 μM), Tris buffer. The protocol:
The calf thymus DNA was purchased from Sigma-Aldrich Chemical Co. and was purified by phenol-chloroform extraction. The DNA was dissolved in buffer (5 mM Tris, 5 mM NaCl, pH 7.2). The concentration (per base pair) of calf thymus DNA was determined spectrophotometrically on the basic of ε260, 13,200 M^−1cm^−1bp.
Absorption Titration. The binding interaction of the gold(III) porphyrins to duplex DNA has been studied by UV-vis spectroscopy.
where [ctDNA] is the concentration of DNA, Δεap═|εA−εB| in which εA=Aobs/[complex], and Δε=|εB−εF|. εB and εF correspond to the extinction coefficient of DNA-bound gold(III) porphyrin and the free gold(III) porphyrins, respectively.
The effect of temperature on the intrinsic binding constants was investigated. Using the van't Hoff equation (2): […]

Assay [1] is described as follows: Control UV-vis titration with sodium dodecyl sulfate instead of DNA. The note with it: sodium dodecyl sulfate (0-5 μM) instead of DNA. It is filed as binding. The text has this:
See Neidle, S. DNA structure and recognition; Oxford University Press: Oxford, 1994; 74-79.

Each structure is given as a SMILES string.

With `C1=Cc2nc1c(-c1ccccc1)c1ccc([n-]1)c(-c1ccccc1)c1nc(c(-c3ccccc3)c3ccc([n-]3)c2-c2ccccc2)C=C1.[Au+3].[Cl-]` [Complex 1a], in the assay with calf thymus DNA, the “bathochromic shift of the Soret band” value is 5 nm. Also, the “bathochromic shift of the Q-band at 520 nm” value with calf thymus DNA (2% DMSO) is recorded as 6 nm. The bathochromic shift in assay [1] is 6 nm.

Values taken from patent publication US20040063681A1, “Methods for using gold (III) complexes as anti-tumor and anti-HIV agents” (priority 2002, published 2004).
